The text below walks through data of PMC12631437, “Evaluation of the Activity of 4‑Quinolones against Multi-Life Stages of Plasmodium spp” (ACS Omega, 2025).

The test system of the assay is P. berghei sexual phases in An. stephensi. As to the kind of experiment: In vivo transmission-blocking assay, P. berghei infected CD1 mice, An. stephensi. Also noted: species or system Plasmodium berghei. The settings on record: positive control, 25 mg/kg x 2/12h. As to the method:
For this assay, a colony of An. stephensi was used. The lab-reared An. stephensi was kept under controlled conditions, with a temperature of 26 °C ± 1 °C, a 12/12 h light/dark cycle, a relative humidity of 70% ± 10%, and fed a 30% sugar solution as needed.
Female CD1 mice (4 to 6 weeks old) were infected by intraperitoneal inoculation (i.p.) containing 10 million erythrocytes infected with P. berghei expressing the GFP fluorescent protein. After 4 days, when parasites in the sexual stages were detected via Giemsa-stained blood smears, mice with similar gametocytemia and parasitemia were randomly divided into three groups of two animals each. The groups of two mices were treated orally with compound 1 at two doses of 50 mg/kg, spaced 12 h apart. […] Following the second dose, mice were anesthetized and placed in individual cages containing approximately 50 female A. stephensi mosquitoes, which had been starved for 24 h before the assay. Blood feeding lasted for 30 min, after which unfed mosquitoes were removed. Engorged females were maintained in an insectary at 21 ± 1 °C and 60% relative humidity, receiving a 30% glucose solution.
A group of 10 mosquitoes was set aside to assess sporozoite development in salivary glands, following a protocol similar to the one described previously, with dissections performed 21 days postblood meal. […]

For the compound `COc1cc(NC(C)CCCN)c2ncccc2c1` (stereo not shown) [Primaquine, reference compound], the “infection of mosquitoes that fed on treated mice” value was “not infected”.
